Molecular target: V8 Protease (GLU--C) (Staphylococcus aureus, UniProt P0C1U8)
Conditions: 75 μg of oligomer, 5 μl of protease, 37° C., 3 hours; PAGE, UV shadowing, silver staining

Sequences of proteins named here, by UniProt entry; tags and fusion partners are left off. Residues count along the entry.
UniProt P0C1U8, 69-336: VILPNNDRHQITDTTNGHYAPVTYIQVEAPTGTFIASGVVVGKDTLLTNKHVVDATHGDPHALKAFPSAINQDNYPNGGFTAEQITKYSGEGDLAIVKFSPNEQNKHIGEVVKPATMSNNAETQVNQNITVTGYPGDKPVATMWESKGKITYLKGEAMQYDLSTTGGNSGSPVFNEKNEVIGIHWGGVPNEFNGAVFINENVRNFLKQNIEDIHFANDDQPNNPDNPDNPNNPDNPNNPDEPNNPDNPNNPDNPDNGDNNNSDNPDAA

Substance	Stability towards V8 Protease (GLU--C)
H--(III T)12 --Lys--OH [H-(IIIT)12 -Lys--OH]	+
H--(III T)8 --Ala--OH [H-(IIIT)8 -Ala--OH]	+

Source: patent US5623049A, “Nucleic acid-binding oligomers possessing N-branching for therapy and diagnostics” (Bayer Aktiengesellschaft, priority 1993, dated 1997)
